Residue numbers refer to the chain shown, from its start.
How the values were obtained:
[1] = target: T1, Danio rerio CPAP^937–1124 TCP domain, WT (Danio rerio, UniProt E7FCY1 937-1124); experiment: ITC; STIL peptide in syringe titrated into CPAP TCP domain in cell; 50 mM HEPES pH 7.5, 100 mM NaCl, 25°C; single set of binding sites model, N as a variable; CPAP typically 40 μM, STIL typically 700 μM; conditions: both partners purified
T1 construct: remnant of the cloning and protease cleavage sites at the N-terminus; also called TCP domain of D. rerio CPAP; G-box; source: E. coli BL21 (DE3) Rosetta, purified (NiNTA, proteolytic tag cleavage, optionally size exclusion, ion exchange); not shown: His tag, N-terminal, cleaved
T1 sequence: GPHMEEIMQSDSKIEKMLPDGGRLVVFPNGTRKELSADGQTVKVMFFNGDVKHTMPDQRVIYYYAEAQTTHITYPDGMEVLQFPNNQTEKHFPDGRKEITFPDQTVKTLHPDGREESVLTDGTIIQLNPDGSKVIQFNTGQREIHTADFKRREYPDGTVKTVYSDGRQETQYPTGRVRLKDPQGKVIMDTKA

[2] = target: T2, Danio rerio CPAP^937–1124 TCP domain T986V (Danio rerio, UniProt E7FCY1 937-1124, T986V); experiment: as above; conditions: both partners purified
T2 construct: remnant of the cloning and protease cleavage sites at the N-terminus; source: E. coli BL21 (DE3) Rosetta, purified (NiNTA, proteolytic tag cleavage, optionally size exclusion, ion exchange); not shown: His tag, N-terminal, cleaved
T2 sequence: T1 sequence with T54V

Kd [1]: 1900 nM
Kd [2]: 1900 nM
B1: Danio rerio STIL^404–448, WT (peptide)
chain: GGSDHDSGVEDEDLSPRPSPNPHPVSQQTKRVHPLVPELSMVLDGSFEFGENLYFQ
notes: remnant of the cloning and protease cleavage sites at the N-terminus; STIL, Danio rerio, 1263 aa protein, residues 404-448 spanning the conserved proline-rich region CR2; remnant of the cloning and protease cleavage sites at the C-terminus; also called fragment of D. rerio STIL that spanned CR2; source: E. coli C41 BL21 (DE3), purified (NiNTA, proteolytic cleavage of the His-lipoyl domains, ion …)

Reference: PMC3776556, “Crystal structures of the CPAP/STIL complex reveal its role in centriole assembly and human microcephaly” (eLife, 2013)
